# Screens: PubChem, National Center for Advancing Translational Sciences (NCATS)
# Shown are actives, neighbours in structure and some others; about 16% of the full set was active somewhere.
# DT40 TDP1 CPT: DT40-hTDP1 cell growth loss with CPT. chicken DT40 Tdp1-/-;hTDP1 cells + 20 nM CPT, ATP luminescence, 48 h. Potency, µM (highest dose often 46.2 µM), without a hit: top-dose activity change, negative = growth inhibition, hits mostly inhibitors. 12% of 420,000 active; also: potency is read from the fitted curve at half-maximal effect; % is scaled to controls: 0 for no effect and ±100 for the full control effect; nearly all actives have a fitted effect of over 55% in size
#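 Cell growth measured by CellTiter-Glo luminescence after a minimum 48 h, 37 C compound exposure with 20 nM CPT in Tdp1-knockout DT40 cells stably expressing hTDP1, seeded 400/well; qHTS titration format.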
# TDP1 inh: inhibitors of human tyrosyl-DNA phosphodiesterase TDP1 | recombinant TDP1, AlphaScreen DNA substrate cleavage | Potency, µM (top dose mostly 130 µM), for inactives: at the top dose activity change, negative = inhibition, hits mostly inhibitors | 0.28% of 350,000 active; also: potency is read from the fitted curve at half-maximal effect; % is scaled to controls: 0 for no effect and ±100 for the full control effect; nearly all actives have a fitted effect of over 40% in size
#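 Enzyme-compound mixtures sat 15 min at room temperature, followed by a 5 min reaction with 15 nM final substrate and 10 min with AlphaScreen beads. Recombinant human Tdp1 was used at 1 nM final.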
# uPA surface inh: inhibitors of cell surface uPA generation; Potency, µM (top dose mostly 38.3 µM), for inactives: at the highest dose activity change, negative = inhibition, hits mostly inhibitors; AID 540303; cell surface uPA generation assay, qHTS; 0.31% of 330,000 active; active = well fitted inhibition curve with a large enough effect; inconclusive = small, poorly fitted or top-dose-only effect; inactive = no such curve, though single readings can be large or run the other way; tested in mouse RAW 264.7 cells; also: potency is read from the fitted curve at half-maximal effect; % is scaled to controls: 0 for no effect and ±100 for the full control effect; nearly all actives have a fitted effect of over 55% in size
# DT40 TDP1 no CPT: qHTS for Inhibitors of human tyrosyl-DNA phosphodiesterase 1 (TDP1): qHTS in cells in absence of CPT; DT40 Tdp1-/- hTDP1 cells, no CPT, ATP luminescence, 48 h; Potency, µM (series often up to 46.2 µM), for the others: at the top dose activity change, negative = growth inhibition, most hits filed as inhibitors; 15% of 420,000 active; AID 686978, 2013; also: potency is read from the fitted curve at half-maximal effect; % is scaled to controls: 0 for no effect and ±100 for the full control effect; nearly all actives have a fitted effect of over 55% in size
#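 Readout: luminescence from CellTiter-Glo after 30 min in the dark at RT. Cells: DT40 Tdp1-/- with stable hTDP1, 400/well. Exposure: compounds alone, ≥48 hr, 37 °C.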
# miR-21 FLuc: raises the signal of a miR-21 reporter; HeLa miR-21 FLuc reporter, luciferase, 48 h; Potency, µM (top dose mostly 38.3 µM), for inactives: at the highest dose reporter change, positive = more light; AID 2288; 340,000 tested, under 10 active; active = well fitted rising curve with a large enough effect; inconclusive = small, poorly fitted or top-dose-only effect; inactive = no such curve, though single readings can be large or run the other way;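 note: % of control where 0% means no effect; miR-21 action dims this reporter so a rising signal means less miR-21 action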
#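 HeLa cells endogenously expressing miR-21, stably carrying CMV-driven firefly luciferase with a downstream miR-21 binding site, 2000 cells/well. Titrations up to approximately 40 uM, 48 hours; luciferase luminescence read.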
# Numbers without * were called inactive; ? = inconclusive; · = no result; [ ] = another dose, or the depositor's remark. Unless noted, calls follow the shape of the dose curve; as a rule, active = well fitted curve in the direction sought with a large enough effect; inconclusive = small, poorly fitted or top-dose-only effect, or another doubt; inactive = no such curve, though single readings can be large; an effect the other way counts as inactive or inconclusive.
SMILES,DT40 TDP1 CPT,TDP1 inh,uPA surface inh,DT40 TDP1 no CPT,miR-21 FLuc
Cc1ccc(CN2CCc3nc(N4CCN(c5ncccn5)CC4)ncc3C2)cc1,?,6%,·,?,29%
Cc1ccc(CN2CCc3nc(Nc4ccc5c(c4)OCCO5)ncc3C2)cc1,?,9%,·,21µM*,11%
CCOc1ccc(CN2CCc3nc(Nc4ccc5c(c4)OCCO5)ncc3C2)cc1,?,14%,·,?,-9%
CCc1ccc(CN2CCc3nc(Nc4ccc5c(c4)OCCO5)ncc3C2)cc1,?,11%,·,23µM*,20%
COc1ccc(NC(=O)CN(C)C(=O)CCc2c[nH]c3ccccc23)cc1,9%,9%,-27%,-14%,16%
CCOC(=O)COc1cc(C)c(Cl)cc1C(=O)c1ccn2nc(-c3ccc(OC)cc3)cc2n1,?,6%,·,13µM*,0%
CCOC(=O)COc1ccc(F)cc1C(=O)c1ccn2nc(-c3ccc(C)cc3)cc2n1,-2%,8%,·,-9%,-2%
CCOC(=O)COc1ccc(C)cc1C(=O)c1ccn2nc(-c3ccc(F)cc3)cc2n1,16µM*,-2%,·,21µM*,-6%
C[C@]12C=CC(=O)N[C@@H]1CC[C@@H]1[C@@H]2CC[C@]2(C)[C@@H](C(=O)Nc3cc(C(F)(F)F)ccc3C(F)(F)F)CC[C@@H]12,-13%,·,·,-11%,·
O=C(CSc1ncnc2[nH]ncc12)Nc1nc(-c2ccc(F)c(F)c2)cs1,13µM*,·,?,21µM*,23%
COc1ccc(CC(=O)Nc2nc(-c3ccc(F)c(F)c3)cs2)cc1,21µM*,3%,0%,16µM*,19%
O=C(CN1C(=O)NC2(CCCC2)C1=O)Nc1nc(-c2ccc(F)c(F)c2)cs1,12µM*,3%,2%,?,·
O=C(Cc1ccc(F)cc1)Nc1nc(-c2ccc(F)c(F)c2)cs1,8.2µM*,·,-10%,?,21%
CCCC(=O)Nc1nc(-c2ccc(OC)cc2)cs1,?,0%,7%,?,-29%
COc1ccc(-c2csc(NC(=O)CS(=O)(=O)c3ccccc3)n2)cc1,?,·,-1%,23µM*,·
CCN(C(=O)CN1C(=O)c2ccc([N+](=O)[O-])cc2C1=O)C1CCS(=O)(=O)C1 (centres undefined),-8%,-1%,3%,4%,·
Cc1ccccc1-c1cncnc1NCCN1CCOCC1,2.9µM*,35µM*,·,3.3µM*,·
COc1cccc(-c2cncnc2Nc2ccccc2)c1,-26%,·,·,?,·
Cc1noc(C)c1-c1cncnc1NCCN1CCOCC1,4%,·,·,7%,·
CN(C)c1ccc(-c2cncnc2NCCN2CCOCC2)cc1,0.92µM*,·,·,1.2µM*,·

# Next part, overlapping the part above by 3 compounds.
SMILES,DT40 TDP1 CPT,TDP1 inh,uPA surface inh,DT40 TDP1 no CPT,miR-21 FLuc
COc1cccc(-c2cncnc2Nc2ccccc2)c1,-26%,·,·,?,·
Cc1noc(C)c1-c1cncnc1NCCN1CCOCC1,4%,·,·,7%,·
CN(C)c1ccc(-c2cncnc2NCCN2CCOCC2)cc1,0.92µM*,·,·,1.2µM*,·
COc1cccc(-c2cncnc2NCc2cnc(C)cn2)c1,4.6µM*,·,·,3.7µM*,·
COc1cccc(-c2cncnc2NCCN2CCOCC2)c1,0.82µM*,·,·,2.9µM*,·
Cc1cnc(CNc2ncncc2-c2cccc(C#N)c2)cn1,-6%,·,·,0%,·
C[C@H]1Cc2c(COc3ccccc3)nc3c(c2CO1)CN(C(=O)c1cccnc1)CC3,·,7%[21 µM],·,·,·
CCc1cccc(C)c1NC(=O)CN(C)S(=O)(=O)c1cccc2nsnc12,?,-2%,·,-27%,-5%
Cc1nn(-c2ccccc2)nc1CNC(=O)C(C)Cc1ccccc1 (centres undefined),?,1%,-6%,?,-1%
CCOC(=O)c1c(C(C)(C)C)oc2ccc(O)cc12,21µM*,0%,5%,23µM*,-1%
CCOC(=O)c1c(COc2ccccc2)oc2ccc(O)cc12,0%,3%,7%,-15%,-11%
Cc1ccc(S(=O)(=O)CS(=O)(=O)c2ccc(C)cc2)cc1,-20%,·,9%,-20%,·
Cc1ccc(S(=O)(=O)SC/C=C/CSS(=O)(=O)c2ccc(C)cc2)cc1,?,·,1%,15µM*,·
Cc1ccc(S(=O)(=O)SCCCSS(=O)(=O)c2ccc(C)cc2)cc1,18µM*,·,2%,21µM*,·
O=C(NCCc1ccccc1)c1nn(-c2ccccc2F)nc1CO,?,7%,·,-28%,20%
Cc1ccc(F)cc1C(=O)N1CCC1(C)C(=O)O (centres undefined),-16%,·,·,2%,·
COc1cc(NC(=O)C(Cc2ccccc2)n2cccc2)cc(OC)c1 (centres undefined),?,9%,2%,?,14%
COc1cc(C(=O)Nc2ccc3oc(-c4cccnc4)nc3c2)cc(OC)c1OC,5.6µM*,8%,2%,21µM*,1%
COc1ccc(C(=O)Nc2ccc3oc(-c4cccnc4)nc3c2)cc1OC,7.3µM*,-2%,-1%,?,-3%
COc1ccc(C(=O)Nc2ccc3oc(-c4cccc(F)c4)nc3c2)cc1OC,?,1%,-4%,?,-10%
O=C(Nc1ccc2oc(-c3ccccc3)nc2c1)c1cccnc1,-23%,2%,0%,-25%,-43%
COc1ccc(Cl)cc1NC(=O)C/C(C)=N/NC(=O)c1ccccc1Cl,-21%,·,4%,5%,0%
CC1(C)COC(c2cc([N+](=O)[O-])ccc2Cl)=N1,-1%,4%,-2%,3%,-1%

# Full records, quoted from the list.
# O=C(NCCc1ccccc1)c1nn(-c2ccccc2F)nc1CO is listed with DT40 TDP1 CPT = ?; TDP1 inh = 7%; uPA surface inh = ·; DT40 TDP1 no CPT = -28%; miR-21 FLuc = 20%
# Cc1ccc(S(=O)(=O)SCCCSS(=O)(=O)c2ccc(C)cc2)cc1 is listed with DT40 TDP1 CPT = 18µM*; TDP1 inh = ·; uPA surface inh = 2%; DT40 TDP1 no CPT = 21µM*; miR-21 FLuc = ·

# Next section.
SMILES,DT40 TDP1 CPT,TDP1 inh,uPA surface inh,DT40 TDP1 no CPT,miR-21 FLuc
CC1(C)COC(c2ccc(F)c([N+](=O)[O-])c2)=N1,16µM*,-6%,-7%,16µM*,3%
COc1ccc(C(=O)N2CCCC2(C)C(=O)NCC(C)C)cc1C(F)(F)F (centres undefined),-26%,·,·,-19%,·
O=C1NCCN1CCN1CCC(c2cn(-c3ccc(F)cc3)c3ccc(Cl)cc23)CC1,3µM*,·,·,2.7µM*,·
CCOC(=O)C1=CCN(S(=O)(=O)c2ccc(C)cc2)C1c1cccs1 (centres undefined),-49%,·,·,?,·
CCOC(=O)C1=CCC(c2ccccc2Cl)N(S(=O)(=O)c2ccc(C)cc2)C1 (centres undefined),15µM*,·,·,?,·
CCOC(=O)C1=CCC(c2ccccc2C(F)(F)F)N(S(=O)(=O)c2ccc(C)cc2)C1 (centres undefined),23µM*,·,·,23µM*,·
COc1cc(CCCN2CCNC[C@@H]2c2ccccc2)cc(OC)c1OC,-12%,-5%,-7%,3%,·
c1ccc([C@H]2CNCCN2CCc2cccc3ccccc23)cc1,?,0%,-6%,21µM*,·
c1ccc2c(C[C@@H]3CNCCN3CC3CCCCC3)cccc2c1,15µM*,5%,-3%,16µM*,·
CC(C)(C)CN1CCNC[C@H]1Cc1ccc(O)cc1,?,·,-6%,-28%,·
O=C1NC[C@@H](Cc2ccc(O)cc2)N(CC2CCCCC2)C1=O,5%,0%,9%,1%,0%
Oc1ccc(C[C@H]2CNCCN2CC2CCCCC2)cc1,?,-5%,-15%,16µM*,·
